Test results reported in US11072625B2 (GLYCOMIMETICS, INC., priority 2016, dated 2021).

Sequences of proteins named here, by UniProt entry; tags and fusion partners are left off. A line that says so, or that is headed by a name, gives the form on record, which may keep a tag or linker. Residues count along the entry.
UniProt P16581, 22-556 with tags or gaps limits assumed: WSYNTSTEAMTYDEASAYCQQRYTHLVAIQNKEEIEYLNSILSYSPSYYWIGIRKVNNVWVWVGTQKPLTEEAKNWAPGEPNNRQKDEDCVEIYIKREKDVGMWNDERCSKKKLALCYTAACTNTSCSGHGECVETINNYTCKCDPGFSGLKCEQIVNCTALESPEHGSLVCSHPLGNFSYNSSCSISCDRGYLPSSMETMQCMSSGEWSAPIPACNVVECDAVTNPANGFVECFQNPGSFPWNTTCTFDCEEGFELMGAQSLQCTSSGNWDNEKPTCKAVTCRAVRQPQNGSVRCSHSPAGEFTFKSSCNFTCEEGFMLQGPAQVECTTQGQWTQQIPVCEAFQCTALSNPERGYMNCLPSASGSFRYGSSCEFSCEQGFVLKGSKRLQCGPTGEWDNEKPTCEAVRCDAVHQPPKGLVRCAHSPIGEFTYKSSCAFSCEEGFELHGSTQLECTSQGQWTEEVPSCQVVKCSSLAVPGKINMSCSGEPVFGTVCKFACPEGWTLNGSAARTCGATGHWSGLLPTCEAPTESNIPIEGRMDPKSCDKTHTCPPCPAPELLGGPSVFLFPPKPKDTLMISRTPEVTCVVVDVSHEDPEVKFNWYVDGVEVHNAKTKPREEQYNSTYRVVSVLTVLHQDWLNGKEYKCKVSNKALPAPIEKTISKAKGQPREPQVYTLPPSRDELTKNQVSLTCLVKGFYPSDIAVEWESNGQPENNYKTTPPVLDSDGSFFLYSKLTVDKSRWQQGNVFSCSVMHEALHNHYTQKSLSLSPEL

Target: recombinant human E-selectin/CD63E Fc Chimera (Homo sapiens, UniProt P16581)
Assay: E-selectin activity, analysis by SPR (Biacore X100)
Settings: Biacore X100, CM5 chip, E-selectin Fc chimera captured on anti-human IgG (Fc) antibody

Question: Which Kd does the source give for `CCC1CC(C(=O)NCCNC(=O)c2cn(CCOCCOCCOCCOCCOCCC(=O)NCCCCC(NC(=O)CCOCCOCCOCCOCCOCCn3cc(C(=O)NCCNC(=O)C4CC(CC)C(OC5OC(C)C(O)C(O)C5O)C(OC5OC(CO)C(O)C(OC(CC6CCCCC6)C(=O)O)C5NC(C)=O)C4)nn3)C(=O)O)nn2)CC(OC2OC(CO)C(O)C(OC(CC3CCCCC3)C(=O)O)C2NC(C)=O)C1OC1OC(C)C(O)C(O)C1O` (stereo not shown) here?
Answer: 5.5 nM

Question: With `CCC1CC(C(=O)NCCNC(=O)c2cn(CCOCCOCCOCCOCCOCCC(=O)NCCCCC(NC(=O)CCOCCOCCOCCOCCOCCn3cc(C(=O)NCCNC(=O)C4CC(CC)C(OC5OC(C)C(O)C(O)C5O)C(OC5OC(CO)C(O)C(OC(CC6CCCCC6)C(=O)O)C5NC(C)=O)C4)nn3)C(=O)OCc3ccccc3)nn2)CC(OC2OC(CO)C(O)C(OC(CC3CCCCC3)C(=O)O)C2NC(C)=O)C1OC1OC(C)C(O)C(O)C1O` (stereo not shown) as the compound, how does the Kd read?
Answer: 5.1 nM

Question: With `CC[C@H]1C[C@@H](C(=O)NCCNC(=O)c2cn(CCOCCOCCOCCOCCOCCn3cc(C(=O)NCCNC(=O)[C@@H]4C[C@H](CC)[C@@H](O[C@@H]5O[C@@H](C)[C@@H](O)[C@@H](O)[C@@H]5O)[C@H](O[C@@H]5O[C@H](CO)[C@H](O)[C@H](O[C@@H](CC6CCCCC6)C(=O)N6CCC6)[C@H]5NC(C)=O)C4)nn3)nn2)C[C@@H](O[C@@H]2O[C@H](CO)[C@H](O)[C@H](O[C@@H](CC3CCCCC3)C(=O)N3CCC3)[C@H]2NC(C)=O)[C@@H]1O[C@@H]1O[C@@H](C)[C@@H](O)[C@@H](O)[C@@H]1O` as the compound, how does the Kd read?
Answer: 2 nM

Question: `CC[C@H]1C[C@@H](C(=O)NCCNC(=O)CCOCCOCCOCCOCCOCCOCCOCCOCCOCCOCCOCCOCCOCCOCCOCCOCCOCCOCCOCCOCCOCCOCCOCCOCCOCCC(=O)NCCNC(=O)[C@@H]2C[C@H](CC)[C@@H](O[C@@H]3O[C@@H](C)[C@@H](O)[C@@H](O)[C@@H]3O)[C@H](O[C@@H]3O[C@H](CO)[C@H](O)[C@H](O[C@@H](CC4CCCCC4)C(=O)N4CCC4)[C@H]3NC(C)=O)C2)C[C@@H](O[C@@H]2O[C@H](CO)[C@H](O)[C@H](O[C@@H](CC3CCCCC3)C(=O)N3CCC3)[C@H]2NC(C)=O)[C@@H]1O[C@@H]1O[C@@H](C)[C@@H](O)[C@@H](O)[C@@H]1O` was tested. Which Kd did it give?
Answer: 2.3 nM
